Molecules are shown by their SMILES.

The target in this experiment is T1, Serine/threonine-protein kinase Chk1 (Homo sapiens) (UniProt O14757).
T1 sequence (whole entry): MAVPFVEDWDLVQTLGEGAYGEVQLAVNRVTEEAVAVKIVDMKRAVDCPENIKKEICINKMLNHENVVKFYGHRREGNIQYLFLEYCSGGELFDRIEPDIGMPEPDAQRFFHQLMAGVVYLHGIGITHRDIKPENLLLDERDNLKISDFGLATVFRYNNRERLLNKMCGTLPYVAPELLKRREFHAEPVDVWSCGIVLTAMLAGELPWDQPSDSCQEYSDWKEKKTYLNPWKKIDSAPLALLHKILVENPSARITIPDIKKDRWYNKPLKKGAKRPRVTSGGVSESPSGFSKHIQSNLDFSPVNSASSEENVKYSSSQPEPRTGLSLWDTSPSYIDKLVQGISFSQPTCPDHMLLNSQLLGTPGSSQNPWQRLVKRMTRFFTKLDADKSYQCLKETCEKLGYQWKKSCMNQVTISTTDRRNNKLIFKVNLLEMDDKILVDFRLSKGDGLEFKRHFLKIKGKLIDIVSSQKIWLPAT
The experiment is described as follows: Inhibition of full length human C-terminal 6His-tagged CHK1 expressed in baculovirus/insect expression system assessed as reduction in NADH oxidation at 20 uM using Syntide2 as substrate by pyruvate kinase/lactate dehydrogenase coupled assay.
For `O=C(Nc1cccnc1)c1ccc2c(-c3nc4ccccc4[nH]3)n[nH]c2c1`, the inhibition (as a rule, the percentage by which the read-out fell short of the control) is 30.6%.

Turning to `O=C(Nc1ccncc1)c1ccc2c(-c3nc4ccccc4[nH]3)n[nH]c2c1`, the inhibition was 40%. As for `CC(=O)NCCNC(=O)c1ccc2c(-c3nc4ccccc4[nH]3)n[nH]c2c1`, the inhibition was found to be 20.2%.

These data come from ChEMBL document CHEMBL3880421, “Indazole compounds and pharmaceutical compositions for inhibiting protein kinases, and methods for their use” (2003).
